Our source for the IC50 values is patent US8865911B2, “Compounds and their use as BACE inhibitors” (Astrazeneca AB, priority 2010, dated 2014).

Protein sequences, listed by entry. Tags and fused reporters are not part of them. Residues count along the entry.
UniProt P56817, 22-460: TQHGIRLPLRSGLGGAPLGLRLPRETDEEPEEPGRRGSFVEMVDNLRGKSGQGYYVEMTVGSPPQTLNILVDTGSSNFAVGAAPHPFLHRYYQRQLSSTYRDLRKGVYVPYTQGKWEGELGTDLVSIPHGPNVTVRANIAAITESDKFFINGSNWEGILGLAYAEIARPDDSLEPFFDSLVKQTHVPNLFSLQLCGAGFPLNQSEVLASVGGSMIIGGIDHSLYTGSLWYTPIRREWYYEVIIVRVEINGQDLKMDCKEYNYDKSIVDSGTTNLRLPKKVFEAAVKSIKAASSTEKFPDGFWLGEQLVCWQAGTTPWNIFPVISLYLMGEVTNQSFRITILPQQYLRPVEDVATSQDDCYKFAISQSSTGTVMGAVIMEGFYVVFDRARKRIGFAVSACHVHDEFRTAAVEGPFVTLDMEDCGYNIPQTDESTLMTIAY

Broadly, the IC50 is the concentration needed to halve the response being measured.

For experiment [1], the target named is T1, human β-Secretase (Homo sapiens (Human), UniProt P56817). Briefly: TR-FRET assay. It counts as biochemical. To be noted: sBACE-Fc, substrate (Europium)CEVNLDAEFK(Qsy7) 100 nM, pH4.5, 15 minutes at r.t. As for the experimental part:
(§1) The β-secretase enzyme used in the TR-FRET is prepared as follows: The cDNA for the soluble part of the human β-Secretase (AA 1-AA 460) was cloned using the ASP2-Fc10-1-IRES-GFP-neoK mammalian expression vector. The gene was fused to the Fc domain of IgG1 (affinity tag) and stably cloned into HEK 293 cells.
The robotic systems Biomek FX and Velocity 11 were used for all liquid handling and the enzyme and substrate solutions were kept on ice until they were placed in the robotic system. Enzyme (9 μl) was added to the plate then 1 μl of compound in dimethylsulphoxide was added, mixed and pre-incubated for 10 minutes. Substrate (10 μl) was then added, mixed and the reaction proceeded for 15 minutes at r.t. The reaction was stopped with the addition of Stop solution (7 μl, NaAcetate, pH 9). […] The dimethylsulphoxide control, instead of test compound, defined the 100% activity level and 0% activity was defined by wells lacking enzyme (replaced with reaction buffer).

Experiment [2] deals with sAPPβ release, SH-SY5Y cells. Briefly: sAPPβ release assay. The following applies: compounds incubated 17 h, MSD detection. Format: cell-based. The procedure: Thaw cells and seed at a conc. of around 10000 cells/well in DMEM/F-12 with Glutamax, 10% FCS and 1% non-essential amino acids to a 384-well tissue culture treated plate, 100 μL cell susp/well. […] The cell medium was removed, followed by addition of 30 μL compound diluted in DMEM/F-12 with Glutamax, 10% FCS, 1% non-essential amino acids and 1% PeSt to a final conc. of 1% DMSO. The compounds were incubated with the cells for 17 h (overnight) at 37° C., 5% CO2. Meso Scale Discovery (MSD) plates were used for the detection of sAPPβ release. MSD sAPPβ plates were blocked in 1% BSA in Tris wash buffer (40 μL/well) for 1 h on shake at r.t. and washed 1 time in Tris wash buffer (40 μL/well). 20 μL of medium was transferred to the pre-blocked and washed MSD sAPPβ microplates, and the cell plates were further used in an ATP assay to measure cytotoxicity. The MSD plates were incubated with shaking at r.t. for 2 h and the media discarded. 10 μL detection antibody was added (1 nM) per well followed by incubation with shaking at r.t. for 2 h and then discarded. 40 μL Read Buffer was added per well and the plates were read in a SECTOR Imager.

The target of experiment [3] is T1, human β-Secretase. Briefly: Diluted TR-FRET assay. Format: biochemical. To be noted: values marked ^a, 50 times less enzyme, 6.5 h reaction time at r.t. in the dark, read-out: IC50 in TR-FRET assay (IC50 from the diluted FRET assay). As for the experimental part:
as §1
The robotic systems Biomek FX and Velocity 11 were used for all liquid handling and the enzyme and substrate solutions were kept on ice until they were placed in the robotic system. Enzyme (9 μl) was added to the plate then 1 μl of compound in dimethylsulphoxide was added, mixed and pre-incubated for 10 minutes. […] The reaction was stopped with the addition of Stop solution (7 μl, NaAcetate, pH 9). […] The dimethylsulphoxide control, instead of test compound, defined the 100% activity level and 0% activity was defined by wells lacking enzyme (replaced with reaction buffer).
(In general: TR-FRET usually uses a lanthanide donor and a delayed reading to cut background.)

On to `CC1=NC2(CC3(CCCOC3)Oc3ccc(-c4ccc(F)c(Cl)c4)cc32)N=C1N` (single isomer, unassigned) [Example 46b Isomer 2, 6′-(3-Chloro-4-fluorophenyl)-5-methyl-5″,6″-dihydro-4′H-dispiro[imidazole-2,4′-chromene-2′,3″-pyran]-4-amine], for which the IC50 against human β-Secretase [1] came out at 147 nM; in experiment [2] (listed as 46b Isomer 2) it was 185 nM.
As for `CO[C@H]1CC[C@]2(CC1)Cc1ccc(-c3cc(F)cc(C#N)c3)cc1C21N=C(C)C(N)=N1` (single isomer, unassigned; isomer 1) [Example 76 Isomer 1, 3-[(1r,4r)-4″-amino-4-methoxy-5″-methyl-3′H-dispiro[cyclohexane-1,2′-indene-1′,2″-imidazol]-6′-yl]-5-fluorobenzonitrile], the IC50 at human β-Secretase [3] (listed as 76 Isomer 1) stood at 3.4 nM.
On to `COCc1cccc(-c2ccc3c(c2)C2(N=C(C)C(N)=N2)[C@]2(CC[C@H](OC)CC2)C3)c1` (stereo partly shown) [Example 80, (1r,4r)-4-Methoxy-6′-[3-(methoxymethyl)phenyl]-5″-methyl-3′H-dispiro[cyclohexane-1,2′-indene-1′,2″-imidazol]-4″-amine], for which, at human β-Secretase [3], the IC50 is 22 nM.
The same measure, in the same setting: the value for `CO[C@H]1CC[C@]2(CC1)Cc1ccc(-c3cncc(Cl)c3)cc1C21N=C(C)C(N)=N1` (stereo partly shown) [Example 20e, (1r,4r)-6′-(5-Chloropyridin-3-yl)-4-methoxy-5″-methyl-3′H-dispiro[cyclohexane-1,2′-indene-1′,2″-imidazol]-4″-amine] was 2.3 nM; that for `CC1=NC2(CC(C3CCOC(C)(C)C3)Oc3ccc(-c4cccc(Cl)c4)cc32)N=C1N` (racemic) [Example 50 Isomeric mixture 2, 6-(3-Chlorophenyl)-2-(2,2-dimethyltetrahydro-2H-pyran-4-yl)-5′-methylspiro[chroman-4,2′-imidazol]-4′-amine] was 5 nM.
Consider `CO[C@H]1CC[C@]2(CC1)Cc1ccc(C#CC(C)(C)C)cc1C21N=C(C)C(N)=N1` (single isomer, unassigned; isomer 2) [Example 20h Isomer 2, (1r,4r)-6′-(3,3-dimethylbut-1-yn-1-yl)-4-methoxy-5″-methyl-3′H-dispiro[cyclohexane-1,2′-indene-1′,2″-imidazol]-4″-amine], for which the IC50 in experiment [2] was determined as 5 nM.
Regarding `CO[C@H]1CC[C@]2(CC1)Cc1ccc(-c3cc(Cl)cc(C#N)c3)cc1[C@@]21N=C(C)C(N)=N1` (single isomer, unassigned) [Example 20d Isomer 1], the IC50 at human β-Secretase [3] is 0.63 nM.
With `COc1cccc(-c2ccc3c(c2)[C@@]2(N=C(C)C(N)=N2)[C@]2(CC[C@H](OC)CC2)C3)c1F` [Example 89, (1r, 1′R,4R)-6′-(2-Fluoro-3-methoxyphenyl)-4-methoxy-5″-methyl-3′H-dispiro[cyclohexane-1,2′-indene-1′,2″-imidazol]-4″-amine], the IC50 at human β-Secretase [3] was 3.3 nM.
Take `CC1=NC2(CC(C3CCOC(C)(C)C3)Oc3ccc(-c4cccc(Cl)c4)cc32)N=C1N` (racemic) [Example 50 Isomeric mixture 1, 6-(3-Chlorophenyl)-2-(2,2-dimethyltetrahydro-2H-pyran-4-yl)-5′-methylspiro[chroman-4,2′-imidazol]-4′-amine]: in experiment [2] (listed as 50 Isomeric mixture 1), the IC50 was 597 nM.
